Experimental data: paper PMC11630639, “Real-time single-molecule imaging of CaMKII-calmodulin interactions” (Biophysical Journal, 2024)

Experiments:
[1] = biological target: Venus-CaMKIIβ K43R holoenzyme (mouse) (UniProt P28652); test: single-molecule TIRF microscopy (colocalisation, occupancy and residence times); V-CaMKII held on a coverslip by GFP antibody, BSA-blocked; r-CAM washed in AB-.Ca2+ (25 mM imidazole-HCl, 25 mM KCl, 4 mM MgCl2, pH 7.4, 0.5 mM calcium, no ATP); apparent rates from step records
[2] = biological target: Venus-CaMKIIβ T287D holoenzyme (mouse) (UniProt P28652); test: as above
[3] = biological target: Venus-tagged CaMKIIβ kinase domain (βΔ315) (mouse); test: as above
[4] = biological target: Venus-CaMKIIβ K43R holoenzyme (mouse) (UniProt P28652); test: single-molecule TIRF microscopy (colocalisation, occupancy and residence times); V-CaMKII held on a coverslip by GFP antibody, BSA-blocked; r-CAM washed in AB+.Ca2+ (25 mM imidazole-HCl, 25 mM KCl, 4 mM MgCl2, pH 7.4, 0.5 mM calcium, 2 mM ATP); apparent rates from step records
[5] = biological target: Venus-CaMKIIβ T287.306-307A holoenzyme (mouse) (UniProt P28652); test: as above
[6] = biological target: Venus-CaMKIIβ T287A holoenzyme (mouse) (UniProt P28652); test: as above
[7] = biological target: Venus-CaMKIIβ wild-type holoenzyme (mouse) (UniProt P28652); test: as above
[8] = biological target: Venus-tagged CaMKIIα association-domain mutant F394A (mouse) (UniProt P11798); test: as above
[9] = biological target: Venus-tagged CaMKIIβ association-domain mutant F458A (mouse) (UniProt P28652); test: as above
[10] = biological target: Venus-tagged CaMKIIβ kinase domain (βΔ315) (mouse); test: as above

In the case of “wheat germ rhodamine-calmodulin loaded with Ca2+ (from UniProt P04464 1-149) (natural protein)”, the kτ1 (fast component of the biexponential residence time fit) [1] is reported as 3.18 s⁻¹, the (τ+/τ−) ratio of the residence time distribution at 3 pM r-CAM [2] is reported as 0.23 and the fold affinity relative to the monomer [2] is reported as greater than 10000 fold. It also gave a mean r-CAM occupancy of the holoenzyme at 3 pM r-CAM [2] of 70%, a kτ (apparent dissociation rate from residence times) [3] of 0.7 s⁻¹ and a (τ+/τ−) ratio of the residence time distribution at 30 nM r-CAM [4] of 0.89. For the same substance, the (τ+/τ−) ratio of the residence time distribution at 30 nM r-CAM [5] was 0.65, the (τ+/τ−) ratio of the residence time distribution at 30 nM r-CAM [6] was 1.76 and the fON (frequency of ON events) at 30 nM r-CAM [7] was 0.045 s⁻¹. It also gave a fold lower Ai than the monomer [7] of 30 fold, a kτ after correction for photobleaching (apparent dissociation rate) at 30 nM r-CAM [7] of 0.315 s⁻¹ and a mean r-CAM occupancy (NCAM) per holoenzyme at 30 nM r-CAM [7] of 2.6. The fON (frequency of ON events) at 30 nM r-CAM [8] was 0.03 s⁻¹, the fold decrease in kτ relative to the β monomer at 300 nM r-CAM [8] was 5 fold and the fold increase in fON relative to the β monomer at 300 nM r-CAM [8] was less than 2 fold. The kτ (apparent dissociation rate) at 30 nM r-CAM [8] was 0.59 s⁻¹, the fON (frequency of ON events) at 30 nM r-CAM [9] was 0.07 s⁻¹ and the kτ (apparent dissociation rate) at 30 nM r-CAM [9] was 0.53 s⁻¹. The Ai (affinity index, r-CAM x kτ/fON, heuristic substitute for KD) [10] was 4.1 µM and the kτ (apparent dissociation rate from residence times) [10] was 0.7 s⁻¹.
